Results published in patent US9233088B2, “Use of glutamate, glutamate derivatives or metabolites, glutamate analogues or mixtures thereof for the manufacture of a composition for the treatment of osteoporosis” (Protista Biotechnology AB, priority 2001, dated 2016).

Columns and labels:
piglets = experiment: Growth (bodyweight) and bone mineralisation during postnatal life of the pig; assay type: in vivo
Protocol: All piglets suckled sow milk before weaning. After weaning at the age of 28 days piglets were fed ad libitum with a standard mixture Premix prestarter (PP) (Food plant-Motycz, Poland) and free access to water was allowed. Piglets were allotted to three experimental trials:
2—Second group, receiving 0.4 g/kg/b.w. of L-alanyl-L-glutamine (ala-gln), (2 ml solution/kg b.w.)
3—Third group, receiving 0.4 g/kg/b.w. α-keto-glutaric sodium salt, AKG, (2 ml solution /kg b.w.) once a day from the first day to the 35th day of life.
Animal weight gain was monitored every day before oral administration of saline, ala-gln or AKG. At the age of 35 days, piglets were sacrificed, eviscerated and bones were sampled.

turkeys = experiment: Ulna bone mineral density (DEXA) after fracture and neurectomy in the turkey; assay type: in vivo; settings: group A, p<0.01
Description: Turkeys are kept in common cages, 10 turkeys/cage. The turkeys have free access to water and are fed ad libitum.

Substance: α-keto-glutaric sodium salt [AKG]
- Bodyweight of the piglets (piglets; compared with control group and Ala-Gln group, p>0.01 in comparison to Ala-Gln (so in the source)): more dramatic
- Bone mineralisation in piglets (piglets; versus piglets receiving placebo): higher
- BMD-Vi (Volumetric index) of the ulna bone, difference compared to the saline treated turkeys (turkeys; left wing control (intact)): 14.8%
- BMD-Vi (Volumetric index) of the ulna bone, AKG effect compared to the saline treated turkeys (turkeys; right wing experimental (neurectomized, fracture)): about 35.7%
